From US9108983B2, “Pyrrole compounds, a process for their preparation and pharmaceutical compositions containing them” (LES LABORATOIRES SERVIER, priority 2013, dated 2015) come the findings set out here.

By UniProt entry, the sequences of proteins in these tests, tags left out.
UniProt P10415, whole entry: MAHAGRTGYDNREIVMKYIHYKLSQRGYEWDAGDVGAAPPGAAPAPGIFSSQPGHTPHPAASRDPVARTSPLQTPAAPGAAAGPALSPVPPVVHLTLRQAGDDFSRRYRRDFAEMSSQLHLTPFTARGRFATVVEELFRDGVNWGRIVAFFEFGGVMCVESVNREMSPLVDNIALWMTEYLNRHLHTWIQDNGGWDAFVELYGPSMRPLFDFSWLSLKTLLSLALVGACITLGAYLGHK

This assay has as its target Bcl-2 protein (histag-Bcl-2, UniProtKB P10415) (Homo sapiens (Human), UniProt P10415). Put plainly: Inhibition of Bcl-2 by the fluorescence polarisation technique. Particulars: incubation for 2 hours, read-out: IC50 (nM) Bcl-2 FP. In kind it is binding.

SMILES strings stand for the structures. Structures can show the parent of a compound that is named as a salt.

With `Cc1c(C(=O)N(c2ccc(O)cc2)c2cnn(C)c2)cc(-c2cc(F)ccc2C(=O)N2Cc3ccccc3C[C@H]2CN2CCOCC2)n1C` [Example 67, 5-(5-Fluoro-2-{[(3S)-3-(morpholin-4-ylmethyl)-3,4-dihydroisoquinolin-2(1H)-yl]carbonyl}phenyl)-N-(4-hydroxyphenyl)-1,2-dimethyl-N-(1-methyl-1H-pyrazol-4-yl)-1H-pyrrole-3-carboxamide hydrochloride], the IC50 was determined as 12.5 nM.

Broadly, the IC50 is the concentration that gives 50% inhibition.
